Screening results deposited in PubChem BioAssay by National Center for Advancing Translational Sciences (NCATS).
miR-21 FLuc – miR-21 reporter, rising signal. HeLa miR-21 FLuc reporter, luciferase, 48 h. Potency, µM (titrated, usually from 38.3 µM), without a hit: at the top dose reporter change, positive = more light. 340,000 tested, under 10 active. AID 2288; active = well fitted rising curve with a large enough effect; inconclusive = small, poorly fitted or top-dose-only effect; inactive = no such curve, though single readings can be large or run the other way;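 also: % of control where 0% means no effect; miR-21 action dims this reporter so a rising signal means less miR-21 action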
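HeLa miR-21-FLuc reporter line, endogenous miR-21; 2000 cells/well in DMEM/10% FBS; compound titration up to ~40uM final, 48 h, 37 degree Celsius; luciferase detection reagent, 15 min lysis, CCD luminescence.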
A549 viability – A549 cytotoxicity, counter-screen for Nrf2 inhibitors; 390,000 compounds, 0.16% hits; Potency, µM (top dose mostly 46 µM), for inactives: top-dose activity change, negative = cytotoxicity, hits mostly inhibitors; AID 504648; A549 ARE-Fluc cells, CellTiter-Fluor viability, 18-24 h; further: potency means the concentration at half of the fitted maximal effect; on the % scale 0 is the no-effect control and ±100 the full control effect
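A549 ARE-Fluc cells in 5% FBS OPTI-MEM, 5000 cells/well, rested 2 h then exposed to compounds in concentration-response for 18-24 h at 37 °C. Viability by CellTiter-Fluor fluorescence (Ex 405/Em 525) after 30 min; luciferase luminescence (BugLite, 15 min, RT) read afterwards.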
Nrf2 activator – activators of Nrf2 (ARE) signaling. Potency, µM (series often up to 46.1 µM), inactives show at the top dose activation, most hits filed as activators. 410,000 compounds, 0.31% hits. AID 624171. AREc32 ARE-luciferase reporter (MCF7-derived line), luminescence, 24 h; further: potency means the concentration at half of the fitted maximal effect; % of control where 0% means no effect; nearly all actives have a fitted effect of over 65% in size
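ARE-driven firefly luciferase activity in AREc32 cells measured after a 24 hr compound exposure at 37 deg C, using Steady-Glo reagent and a 30 min room-temperature hold.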
ClpP mod – qHTS Assay for Activators of ClpP; purified B. subtilis ClpP, FRET peptide cleavage, 20 min; 340,000 compounds, 1.9% hits; Potency, µM (highest dose often 57.5 µM), for the others: at the highest dose activity change, negative = active; ATP-dependent Clp protease proteolytic subunit (Bacillus subtilis (strain 168)), P80244; active means well fitted falling curve with a large enough effect; inconclusive means small, poorly fitted or top-dose-only effect; inactive means no such curve, though single readings can be large or run the other way; further: potency means the concentration at half of the fitted maximal effect; the source files actives as falling curves though it sought activators and does not explain the sign; nearly all actives have a fitted effect of over 65% in size
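Purified B. subtilis ClpP, 10 microg/mL final in Tris/HCl pH8 with KCl, BSA, glycerol and Tween-20, cleaved an Abz/nitrotyrosine-quenched decapeptide. Fluorescence (ex 320, em 430) was read at 0 and 20 min at room temperature. Delta was normalized to 5.8 microM ADEP and DMSO/no-enzyme controls.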
Nrf2 block – Nrf2 pathway inhibition | A549 ARE-Fluc reporter, luciferase luminescence, 18-24 h | Potency, µM (titrated, usually from 46 µM), inactives show top-dose activity change, negative = inhibition, most hits filed as inhibitors | 360,000 compounds, 2.1% hits | AID 504444; further: potency means the concentration at half of the fitted maximal effect; on the % scale 0 is the no-effect control and ±100 the full control effect; nearly all actives have a fitted effect of over 60% in size
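Two sequential reads on A549 ARE_Fluc cells exposed to compound for 18-24 h: a CellTiter-Fluor fluorescence read for viability, then a luciferase luminescence read for Nrf2/ARE activity.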
IL2 activator – activators of IL-2; IL-2 activation reporter assay, cell-based qHTS; stimulated with anti-CD3/CD4/CD28 beads; in transgenic mouse T cells; AID 652025; activation, % (series mostly up to about 46 µM); 360,000 compounds, 0.065% hits; in the data active means activation above about 50%; inconclusive means mostly about 30% to 49%; further: 0% is about no effect
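EGFP and DsRed fluorescence is measured by plate cytometry in unstimulated transgenic mouse T cells exposed to compound for 60 minutes, then stimulated 18 hours at 37 degrees C with anti-CD3/anti-CD4 beads plus anti-CD28.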
* = called active by the depositor; ? = inconclusive; . = no result; [ ] = remark or other dose. Rows were chosen to be rich in hits. Some 3.7% of all compounds tested hit in one or more screens of this group. Unless noted, the call rests on the fitted dose curve; in most records, active means well fitted curve in the direction sought with a large enough effect; inconclusive means small, poorly fitted or top-dose-only effect, or another doubt; inactive means no such curve, though single readings can be large; an effect the other way counts as inactive or inconclusive.

By UniProt entry, the sequences of proteins in these tests, tags left out.
ATP-dependent Clp protease proteolytic subunit (Bacillus subtilis (strain 168)), P80244, UniProt P80244, whole entry, looked up: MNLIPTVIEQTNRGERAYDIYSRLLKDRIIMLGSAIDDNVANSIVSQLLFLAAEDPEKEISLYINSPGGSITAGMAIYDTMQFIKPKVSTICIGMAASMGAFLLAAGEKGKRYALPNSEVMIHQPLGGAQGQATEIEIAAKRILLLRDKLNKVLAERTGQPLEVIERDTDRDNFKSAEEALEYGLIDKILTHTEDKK

SMILES	miR-21 FLuc	A549 viability	Nrf2 activator	ClpP mod	Nrf2 block	IL2 activator
Cc1ccccc1-n1nc(CO)c(C(=O)NCCc2ccccc2)n1	1%	3%	0%	-5%	-13%	.
Cc1nc2sccn2c(=O)c1S(=O)(=O)Nc1cc(C(F)(F)F)ccc1Cl	-9%	3%	1%	-3%	-2%	.
Cc1cccc(OC(C)C(=O)N2CCC(c3nc4ccccc4o3)CC2)c1C (stereo not drawn)	0%	-4%	6%	1%	?	.
Cc1cccc(CN2C3=NCCCN3c3ccccc32)c1	9%	-2%	0%	1%	-17%	-2
CCN1C2=NCCCN2c2cc(C)c(C)cc21	0%	4%	0%	28µM*	.	0
CC(C)CCNC(=O)[C@@H](c1ccccc1)N1Cc2ccccc2C1=O	1%	1%	0%	-4%	13%	.
Cc1ccc(C(=O)C(c2ccccc2)N2Cc3ccccc3C2=N)cc1 (stereo not drawn)	15%	-12%	4%	3.2µM*	?	-3
Cn1nc(C(F)(F)F)c(/C=N/OC(=O)c2ccccc2)c1Cl	0%	-2%	-1%	-1%	-11%	-2
Cn1nc(C(F)(F)F)c(/C=N/OC(=O)c2ccccc2)c1Sc1ccc(Cl)cc1	4%	-7%	0%	-3%	15µM*	0
Cc1ccc(CNc2oc(-c3ccco3)nc2C#N)cc1	-31%	4%	5%	16µM*	-13%	0
COc1ccc(CCNc2oc(-c3ccco3)nc2C#N)cc1	-21%	-7%	0%	28µM*	-5%	-2
COc1ccc(CCNc2oc(COc3ccc(F)cc3)nc2C#N)cc1	-2%	1%	0%	0%	-24%	1
Cc1ccc(-c2nc(C#N)c(NCc3cccc4c3OCO4)o2)cc1	-52%	-16%	6%	32µM*	?	-1
N#Cc1nc(-c2ccco2)oc1NCCc1ccccc1	-49%	2%	8%	28µM*	-18%	0
CNc1oc(-c2ccco2)nc1C#N	-8%	-1%	16%	?	-13%	1
CCc1ccc2c(c1)NC(c1ccc(F)cc1)=NC(c1ccncc1)=N2	1%	9%	5%	-2%	13%	.
CCCc1cc2c(c(NC(C)=O)n1)c(=O)oc1ccccc12	-22%	?	4%	32µM*	0%	0
CN(C)c1ccc(/C=C2\C=Cc3ccccc32)cc1F	.	.	.	1%	.	.
CCN(Cc1ccccc1)Cc1c(O)ccc2c(=O)c(-c3ccccc3Cl)c(C(F)(F)F)oc12	-2%	-10%	-1%	-3%	?	.
COC1(OC)C(/C=C/c2ccc(C)cc2)C(C#N)(C#N)C1(OC)OC (stereo not drawn)	.	?	?	32µM*	?	-2
O=C1c2ccccc2C(=O)N1c1ccccc1O	.	2%	.	.	-9%	.
c1ccc2c(c1)CCN(c1nc3ccccc3n3cnnc13)C2	0%	-7%	13µM*	?	15%	-1
Cc1ccc(-c2nnc(-c3cccc(Br)c3)o2)cc1	-48%	10%	?	?	?	-2
CCOc1ccc(-c2nnc(-c3ccccc3)o2)cc1	-43%	-4%	-2%	28µM*	?	0
CCOc1ccc(-c2nnc(-c3ccc(OC)cc3)o2)cc1	-13%	0%	0%	?	.	-1
(list continues)
SMILES	miR-21 FLuc	A549 viability	Nrf2 activator	ClpP mod	Nrf2 block	IL2 activator
Brc1cccc(-c2nnc(-c3ccccc3)o2)c1	-50%	7%	3.2µM*	-8%	?	0
c1ccc(-c2nnc(-c3ccccc3)o2)cc1	-61%	6%	4.5µM*	-14%	.	0
COc1cccc(NC(=O)C2CCCN(c3ncnc4onc(-c5ccc(F)cc5)c34)C2)c1 (stereo not drawn)	-11%	12%	6%	-1%	-4%	.
COc1ccccc1CNC(=O)Cn1nc(C)n2cccc2c1=O	17%	8%	4%	-2%	8%	.
Oc1oc(-c2ccccc2)nc1C=Nc1ccccc1	-48%	-2%	?	-1%	?	-1
CN(C)c1ccc(N=Cc2nc(-c3ccccc3)oc2O)cc1	-15%	-18%	2%	22µM*	26%	28
NS(=O)(=O)c1ccc(N/N=C/c2cn(-c3ccccc3)nc2-c2cccs2)cc1	-25%	-5%	0%	16µM*	0%	-4
NS(=O)(=O)c1ccc(N/N=C/c2ccc[nH]2)c([N+](=O)[O-])c1	8%	-6%	7%	-4%	8.2µM*	1
N#Cc1ccc(N/N=C/c2cn(-c3ccccc3)nc2-c2ccccc2)c([N+](=O)[O-])c1	1%	0%	0%[9.22 µM]	0%	8%	1
NS(=O)(=O)c1ccc(N/N=C/c2ccc(C(=O)O)cc2)c([N+](=O)[O-])c1	-1%	-15%	0%	1%	1%	-1
NS(=O)(=O)c1ccc(N/N=C/c2cn(-c3ccccc3)nc2-c2cccs2)c([N+](=O)[O-])c1	-14%	13µM*	-2%	.	10µM*	-8
O=C(NNC(=S)Nc1cccc(Cl)c1)c1ccccc1OC(F)F	-13%	-6%	-1%	8%	21µM*	-1
CCCn1c2ccccc2c2cnn(CC(=O)Nc3cc(OC)c(OC)c(OC)c3)c(=O)c21	0%	1%	0%	-24%	-22%	.
Cc1cc(C)cc(S(=O)(=O)c2cnc3ccccc3n2)c1	11%	-4%	22µM*	.	9%	-1
O=S(=O)(c1ccc(Cl)cc1)c1cnc2ccccc2n1	29%	-3%	?	.	?	-2
CCN1C(=O)[C@H]2[C@@H](c3ccc(-c4ccccc4)cc3)N3CCC[C@@]3(C(=O)OC)[C@H]2C1=O	.	-2%	2%	-14%	15µM*	-1
CCN1C(=O)[C@@H]2[C@@H](c3ccc(-c4ccccc4)cc3)N3CCC[C@@]3(C(=O)OC)[C@@H]2C1=O	.	-6%	0%	-1%	4%	0
COc1cc(OC)c(-c2c3cc(O)c(=O)cc-3oc3cc(O)c(O)cc23)cc1OC	14%	16µM*	-2%	-5%	?	-1
COc1ccc(S(=O)(=O)NCCc2sc(-c3cccc(F)c3)nc2C)cc1	-9%	-2%	3%	4%	.	.
N#Cc1c(-c2ccccc2)cc(-c2ccccc2)nc1SCC(O)CS(=O)(=O)Cc1ccc(Cl)cc1 (stereo not drawn)	9%	-3%	6%	10µM*	-13%	.

5 entries from above, bar-delimited:
mol | miR-21 FLuc | A549 viability | Nrf2 activator | ClpP mod | Nrf2 block | IL2 activator
O=S(=O)(c1ccc(Cl)cc1)c1cnc2ccccc2n1 | 29% | -3% | ? | . | ? | -2
CCN1C(=O)[C@H]2[C@@H](c3ccc(-c4ccccc4)cc3)N3CCC[C@@]3(C(=O)OC)[C@H]2C1=O | . | -2% | 2% | -14% | 15µM* | -1
CCN1C(=O)[C@@H]2[C@@H](c3ccc(-c4ccccc4)cc3)N3CCC[C@@]3(C(=O)OC)[C@@H]2C1=O | . | -6% | 0% | -1% | 4% | 0
COc1cc(OC)c(-c2c3cc(O)c(=O)cc-3oc3cc(O)c(O)cc23)cc1OC | 14% | 16µM* | -2% | -5% | ? | -1
COc1ccc(S(=O)(=O)NCCc2sc(-c3cccc(F)c3)nc2C)cc1 | -9% | -2% | 3% | 4% | . | .

Looked up one by one from the list above:
SMILES	miR-21 FLuc	A549 viability	Nrf2 activator	ClpP mod	Nrf2 block	IL2 activator
CN(C)c1ccc(/C=C2\C=Cc3ccccc32)cc1F	.	.	.	1%	.	.
COc1ccccc1CNC(=O)Cn1nc(C)n2cccc2c1=O	17%	8%	4%	-2%	8%	.
